Data on three substances can be found in US20260200951A1, “NOVEL BORATE COMPOUND SOLUBLE IN ALIPHATIC HYDROCARBON SOLVENT” (AGC INC., priority 2023, published 2026).

The data set in a line: Evaluation of solubility (visual appearance of stored solutions in aliphatic hydrocarbon solvents). Conditions: for solubility room temperature, 3 days: stored at room temperature for 3 days; for solubility room temperature, 3 days / solubility −15° C., 3 days: visual observation; for solubility −15° C., 3 days: stored at −15° C. for 3 days. It is filed as physicochemical. The procedure:
Methylcyclohexane solutions containing 50% by weight of each of the compounds obtained in Examples 1 and 2 and Comparative Examples 1 to 5, and n-hexane solutions containing 0.6% by weight (≈3 mM) of each of the aforementioned compounds were prepared and stored at room temperature or −15° C. for 3 days, and the appearance of each solution was confirmed by visual observation. The symbols used to evaluate solubility in the Tables mean the following: • ◯: homogeneous transparent solution state • Δ: cloudy state • x: two-phase separation or crystallization

[1] abbreviates: 0.6 wt % (≈3 mM) borate compound/n-hexane solution.
Setting [2] is: 50 wt % borate compound/methylcyclohexane solution.

On to “N,N-Didodecyl-4-butylanilinium tetrakis(pentafluorophenyl)borate [Comparative Example 4]”, for which, under setting [1], the “solubility room temperature, 3 days” value is reported as “∘” and the “solubility −15° C., 3 days” value is “x (two-phase separation or crystallization)”. In addition, under setting [2], the “solubility room temperature, 3 days” value was “∘” and the “solubility −15° C., 3 days” value is listed as “∘”.
For the substance “N,N-Ditetradecyl-4-butylanilinium tetrakis(pentafluorophenyl)borate [Comparative Example 5]”, under setting [1], the “solubility room temperature, 3 days” value is listed as “∘” and the “solubility −15° C., 3 days” value was “x (two-phase separation or crystallization)”. In addition, under setting [2], the “solubility room temperature, 3 days” value is recorded as “∘” and the “solubility −15° C., 3 days” value is recorded as “∘”.
For “N, N-Dihexadecyl-4-butylanilinium tetrakis(pentafluorophenyl)borate [Example 1]”, under setting [1], the “solubility room temperature, 3 days” value is reported as “∘” and the “solubility −15° C., 3 days” value was “∘”. Further, under setting [2], the “solubility room temperature, 3 days” value is “∘” and the “solubility −15° C., 3 days” value was “∘*”. For the same substance, the “solubility in aliphatic hydrocarbon solvents at low temperatures, in words” value (compared to Comparative Examples 1 to 5, summary of Tables 1 and 2) is given as “remarkably high solubility”.
